Measurements as given in article PMC2860993 (PLoS ONE, 2010).

Test system: recombinant luciferase-expressing CMV (Towne)
Format: cell-based, human CMV
Experimental: Human Foreskin Fibroblasts (HFF) passage 12–16 and human lung fibroblasts (HEL) passage 8–12 (from ATCC) were maintained in DMEM containing 10% fetal bovine serum and used for infections with the viruses.
The CMV strains used for infections were the highly-passaged Towne virus, and a clinical isolate obtained from the urine of a neonate with congenital CMV infection (SB) and passaged once in tissue culture. […] Initial experiments were performed using a recombinant human CMV-green fluorescent protein (GFP) virus, derived from Towne strain. This virus has a 9-kb deletion from the dispensable unique short (US) region from US1 to US12, and instead contains the bacterial artificial chromosome sequences and a GFP expression cassette. […] A recombinant virus expressing luciferase reporter gene under the control of UL99 (pp28) late promoter was generated by insertion of the reporter gene between the US9 and US10 ORFs in the Towne genome.
Towne-GFP, Towne–luciferase, and SB viruses were used in these assays. HFF or HEL were grown to subconfluent monolayers and infected with the CMV viruses at MOI 0.1 to 3. […] The concentration of each compound was calculated and adjusted by volume such that it was constant throughout the experiment. Following 90 minute incubation, media was replaced with fresh media containing the drug used. […]

Question: For `Nc1nc(O)c2ncn(COC(CO)CO)c2n1` [GCV, Ganciclovir], which “selectivity relative to the monomers” value (comparison of SI, Table 1) is on record?
Answer: approximately 10 times

Question: And the “Selectivity index (SI)” value (ratio between CC50 and EC50)?
Answer: 44±6.2
